Test results taken from patent publication US8022075B2, “Diagnostic and remedy for disease caused by amyloid aggregation and/or deposition” (Fujifilm Ri Pharma Co., Ltd., priority 2005, dated 2011).

Amino acid sequences for entries named in this document (tags omitted). Residues count along the entry.
UniProt P05067, 672-711 limits assumed: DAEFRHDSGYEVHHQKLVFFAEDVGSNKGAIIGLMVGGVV

Legend:
[1] = standard substances of liposolubility; values reported in the literature; cited from earlier work
[2] = biological target: synthetic amyloid β (1-40) aggregates (Homo sapiens, UniProt P05067); experiment: Inhibition of binding of compound 23 to amyloid β protein aggregates; design: amyloid β (1-40) peptide hydrochloric acid salt; host or cells: chemically synthesised peptide; conditions: read-out: Inhibitory activity (n = 3) IC50 Mean ± S.D.; binding of 125I-labeled compound 23 to A β 1-40 aggregates; room temperature, three hours

Row | SMILES | LogD7.4 [1] | IC50 [2] [nM]
1 | Cc1nc2n(c(=O)c1CCN1CCC(c3noc4cc(F)ccc34)CC1)CCCC2 [Risperidon] | 2.04 | 
2 | Cc1ccc2c(c1)sc(-c1ccc(N(C)C)cc1)[n+]2C [Thioflavin T] |  | 895 ± 121
